Usually pIC50 stands for −log10 of the IC50, conventionally taken in molar units.

Chains of the proteins cited; added tags and fusions are not shown.
UniProt Q15746, whole entry: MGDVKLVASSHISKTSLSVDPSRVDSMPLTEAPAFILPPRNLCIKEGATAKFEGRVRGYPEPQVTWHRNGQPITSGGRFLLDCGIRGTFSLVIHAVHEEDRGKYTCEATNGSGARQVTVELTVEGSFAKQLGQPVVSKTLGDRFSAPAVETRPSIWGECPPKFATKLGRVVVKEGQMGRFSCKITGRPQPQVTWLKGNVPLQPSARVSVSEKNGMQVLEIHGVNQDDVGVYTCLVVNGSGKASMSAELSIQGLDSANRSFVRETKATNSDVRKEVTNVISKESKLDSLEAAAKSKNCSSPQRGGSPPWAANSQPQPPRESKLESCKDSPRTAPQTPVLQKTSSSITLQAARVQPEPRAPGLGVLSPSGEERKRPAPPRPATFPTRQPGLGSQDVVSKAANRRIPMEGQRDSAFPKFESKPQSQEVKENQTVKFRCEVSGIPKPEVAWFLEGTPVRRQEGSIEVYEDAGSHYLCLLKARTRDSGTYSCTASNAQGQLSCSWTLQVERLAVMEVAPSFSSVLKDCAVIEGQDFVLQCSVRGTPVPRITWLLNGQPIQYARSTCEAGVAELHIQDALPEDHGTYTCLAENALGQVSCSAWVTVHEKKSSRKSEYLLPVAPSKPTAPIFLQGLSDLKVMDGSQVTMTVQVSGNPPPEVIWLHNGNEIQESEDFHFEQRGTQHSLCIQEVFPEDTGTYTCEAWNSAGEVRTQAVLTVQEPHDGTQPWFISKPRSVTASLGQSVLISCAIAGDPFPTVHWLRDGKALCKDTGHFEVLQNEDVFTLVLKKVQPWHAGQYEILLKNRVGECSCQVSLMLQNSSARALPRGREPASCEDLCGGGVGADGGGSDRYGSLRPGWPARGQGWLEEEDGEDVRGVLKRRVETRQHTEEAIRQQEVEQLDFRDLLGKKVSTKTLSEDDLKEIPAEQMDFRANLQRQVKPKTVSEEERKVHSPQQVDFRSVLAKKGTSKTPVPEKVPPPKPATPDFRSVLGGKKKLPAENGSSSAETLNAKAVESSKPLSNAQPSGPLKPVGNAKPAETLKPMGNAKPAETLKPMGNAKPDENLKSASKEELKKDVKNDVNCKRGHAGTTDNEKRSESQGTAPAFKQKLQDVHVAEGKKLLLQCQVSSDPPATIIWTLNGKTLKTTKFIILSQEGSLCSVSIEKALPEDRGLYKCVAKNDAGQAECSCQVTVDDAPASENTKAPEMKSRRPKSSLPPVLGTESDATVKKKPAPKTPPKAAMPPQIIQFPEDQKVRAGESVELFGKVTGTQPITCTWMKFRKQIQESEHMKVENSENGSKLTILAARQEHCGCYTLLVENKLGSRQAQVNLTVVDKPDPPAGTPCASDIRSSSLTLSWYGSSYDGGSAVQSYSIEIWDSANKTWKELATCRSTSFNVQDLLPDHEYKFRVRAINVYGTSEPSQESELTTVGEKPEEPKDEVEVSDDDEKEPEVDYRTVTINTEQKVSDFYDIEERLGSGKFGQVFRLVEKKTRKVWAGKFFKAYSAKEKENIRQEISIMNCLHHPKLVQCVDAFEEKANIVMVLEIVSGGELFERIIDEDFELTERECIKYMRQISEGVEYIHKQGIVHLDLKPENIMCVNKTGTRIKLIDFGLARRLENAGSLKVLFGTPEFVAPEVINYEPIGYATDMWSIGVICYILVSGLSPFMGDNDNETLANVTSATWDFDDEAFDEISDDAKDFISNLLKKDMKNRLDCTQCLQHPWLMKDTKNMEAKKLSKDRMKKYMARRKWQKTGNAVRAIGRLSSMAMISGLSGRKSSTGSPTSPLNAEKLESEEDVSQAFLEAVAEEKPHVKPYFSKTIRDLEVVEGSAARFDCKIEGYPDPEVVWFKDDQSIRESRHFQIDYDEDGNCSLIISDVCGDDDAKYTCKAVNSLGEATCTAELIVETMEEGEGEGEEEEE

The target in this experiment is Myosin light chain kinase, smooth muscle (Homo sapiens, UniProt Q15746). Briefly: Inhibition of Myosin light chain kinase 1 (MLCK1).

Each structure is given as a SMILES string. pIC50: −log10 of the molar value.

`COC(=O)[C@@]1(O)C[C@H]2O[C@]1(C)n1c3ccccc3c3c4c(c5c6ccccc6n2c5c31)C(=O)NC4` [K-252A] had a pIC50 of 7.66.
